Bioassay records (PubChem BioAssay)
GLP-1R agonist – agonists of human GLP-1 receptor | HEK293 GLP-1R CRE-luciferase, luminescence, 4-6 h; cells express a hypersensitive GLP-1R form | Potency, µM (series often up to 45.6 µM), for inactives: at the highest dose activation, most hits filed as activators | 380,000 tested, 0.007% active; also: potency is read from the fitted curve at half-maximal effect; % of control where 0% means no effect
HEK293 tox – cytotoxicity counter-screen for GLP-1 receptor inverse agonists | HEK293 cAMP-luciferase reporter cells, luminescence, 24 h | 410,000 tested, 0.13% active | Potency, µM (top dose mostly 38.3 µM), inactives show top-dose activity change, negative = inhibition, usual class: inhibitors;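 also: loss of luciferase light is scored as toxicity; potency is read from the fitted curve at half-maximal effect; % is scaled to controls: 0 for no effect and ±100 for the full control effect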
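Quantitative HTS format, 1536 wells, 200 cells/uL seeded. Compounds: 23 nL, 24 h, 37 °C. Detection: luciferase reagent, luminescence at 12 min RT; decreased signal taken as cytotoxic.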
PTHR1 agonist – agonists of human PTHR1 parathyroid hormone receptor; Q03431; HEK293 GP2 PTHR1 cells, GloSensor cAMP luminescence, 1 h; Potency, µM (top dose mostly 115 µM), for inactives: at the highest dose activation, actives largely listed as activators; 410,000 tested, 0.075% active; also: potency is read from the fitted curve at half-maximal effect; nearly all actives have a fitted effect of over 55% in size
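HEK-293-derived GP2 cells expressing PTHR1 and a GloSensor cAMP reporter, 3,000/well, plated overnight, given luciferin plus IBMX (each 0.5 mM as added) for 1 h at 37 °C, then compound for 1 h at 37 °C. Luminescence was read after 15 min at room temperature.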
GLP-1R inv ag – acts as inverse agonist at human GLP-1 receptor | P43220 | HEK293 GLP-1R CRE-luciferase, luminescence, 24 h; GLP-1R form is constitutively active | Potency, µM (doses to about 38.3 µM), for inactives: at the top dose activity change, negative = inhibition, most hits filed as inhibitors | 410,000 tested, 1.6% active; also: potency is read from the fitted curve at half-maximal effect; % is scaled to controls: 0 for no effect and ±100 for the full control effect; nearly all actives have a fitted effect of over 55% in size
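Using stably transfected HEK293 (constitutively active GLP-1R, cAMP-luciferase reporter), compounds were incubated 24 hr and luciferase measured by luminescence.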
Pin1 inh – blocks the human prolyl isomerase Pin1. Q13526. Pin1 FP peptide displacement, HiFluor488, 10 min. Potency, µM (series often up to 115 µM), for inactives: at the top dose activity, negative = inhibition, most hits filed as inhibitors. 390,000 tested, 0.009% active; active = well fitted inhibition curve with a large enough effect in the polarisation, with a control signal flat, not every such curve was filed as active; inconclusive = small, poorly fitted or top-dose-only effect, or effect the other way, or a change in a side signal; inactive = no such curve, though single readings can be large or run the other way; the % refers to the polarisation; also: potency is read from the fitted curve at half-maximal effect; % is scaled to controls: 0 for no effect and ±100 for the full control effect
miR-21 reporter – miR-21 reporter, rising signal. HeLa miR-21 FLuc reporter, luciferase, 48 h. Potency, µM (titrated, usually from 38.3 µM), without a hit: at the top dose reporter change, positive = more light. 340,000 tested, under 10 active. AID 2288; active = well fitted rising curve with a large enough effect; inconclusive = small, poorly fitted or top-dose-only effect; inactive = no such curve, though single readings can be large or run the other way;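 also: % of control where 0% means no effect; miR-21 action dims this reporter so a rising signal means less miR-21 action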
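HeLa cells endogenously expressing miR-21, stably carrying CMV-driven firefly luciferase with a downstream miR-21 binding site, 2000 cells/well. Titrations up to approximately 40 uM, 48 hours; luciferase luminescence read.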
Starred values were filed as active, the others as inactive; i = inactive; ? = inconclusive; . = not tested or not shown; [ ] = another dose, or the depositor's remark. Most compounds without a hit are left out; they make up all but 1.7% or so of the library. Unless noted, calls follow the shape of the dose curve; as a rule, active = well fitted curve in the direction sought with a large enough effect; inconclusive = small, poorly fitted or top-dose-only effect, or another doubt; inactive = no such curve, though single readings can be large; an effect the other way counts as inactive or inconclusive.

Short keys – A = GLP-1R agonist; B = HEK293 tox; C = PTHR1 agonist; D = GLP-1R inv ag; E = Pin1 inh; F = miR-21 reporter
> CC1CCCCN1C(=S)NC(=O)c1ccccc1 (stereo not given)
  A = 4%; B = 11µM*; C = 5%; D = ?; E = -5%; F = .

> COc1ccc(C2Nc3ccccc3C(=O)N2Cc2ccccc2)cc1COc1ccc(C#N)cc1 (stereo not given)
  A = .; B = .; C = .; D = .; E = 15%; F = .

> CC(=O)c1ccc(NC(=O)c2cccc(NC(=O)N3CCSc4ncccc43)c2)cc1
  A = .; B = -10%; C = i; D = 2%; E = 3%; F = 17%

> Cc1c(Cl)c([N+](=O)[O-])nn1Cc1ccc(C(=O)N/N=C\c2cccc(Br)c2)o1
  A = -5%; B = -15%; C = -3%; D = 10µM*; E = 2%; F = -6%

> COc1cccc(/C=C2/SC(=S)N(CC(=O)Nc3nccs3)C2=O)c1
  A = .; B = .; C = .; D = .; E = 0%; F = .

> O=C(/C(=C(\[O-])c1ccccc1)[n+]1ccc2ccccc2c1)c1ccc([N+](=O)[O-])cc1
  A = 0%; B = -1%; C = 21%; D = -4%; E = -2%; F = 5%

> O=[N+]([O-])c1ccc(-[n+]2ccc3ccccc3c2)c([N+](=O)[O-])c1
  A = -10%; B = 13µM*; C = -47%; D = ?; E = 0%; F = .

> O=C1/C(=C/c2ccc(N3CCOCC3)o2)SC(=Nc2ccccc2)N1CCc1c[nH]c2ccccc12
  A = -53%; B = ?; C = -58%; D = 1.1µM*; E = ?; F = ?

> Cc1ccc(NC(=O)CSc2ncc3c(n2)-c2ccccc2N(C)S3(=O)=O)c(Cl)c1
  A = .; B = ?; C = -21%; D = ?; E = 24%; F = 23%

> O=C(c1noc2c1CCCC2)N1CCc2c([nH]c3ccccc23)C1c1ccccn1 (stereo not given)
  A = 11%; B = 3%; C = -1%; D = -19%; E = 4%; F = -13%

The listing continues.
Short keys – A = GLP-1R agonist; B = HEK293 tox; C = PTHR1 agonist; D = GLP-1R inv ag; E = Pin1 inh; F = miR-21 reporter
> Cc1ncoc1C(=O)N1CCc2c([nH]c3ccccc23)C1C(C)(C)C (stereo not given)
  A = 2%; B = 2%; C = -12%; D = -27%; E = 0%; F = 0%

> Cc1cccc(C2c3[nH]c4ccccc4c3CCN2C(=O)c2noc3c2CCCC3)n1 (stereo not given)
  A = 17%; B = -9%; C = -33%; D = 7.1µM*; E = 14%; F = -3%

> Cc1ncoc1C(=O)N1CCc2c([nH]c3ccccc23)C1C1CCCCC1 (stereo not given)
  A = -10%; B = 67%; C = -22%; D = 10µM*; E = -15%; F = -31%

> CC(C)Oc1cccc(-c2csc(N3CCC(C(N)=O)CC3)n2)c1
  A = .; B = .; C = .; D = .; E = 0%; F = .

> Cc1ccc(S(=O)(=O)N2CCN(c3nc(-c4ccncc4)nc4ccccc34)CC2)cc1
  A = .; B = .; C = .; D = .; E = 0%; F = .

> S=C1Cc2ccccc2N1
  A = -1%; B = -1%; C = i; D = 1µM*; E = -2%; F = ?

> O=C(Cn1cc(C(=O)C(F)(F)F)c2ccccc21)N1CCCCCC1
  A = 1%; B = -6%; C = -9%; D = ?; E = 0%; F = -4%

> CC1=CCC(C(=O)N/N=C/c2cccs2)C(c2ccc(F)cc2)C1 (stereo not given)
  A = 0%; B = -14%; C = -3%[57.5 µM]; D = 10µM*; E = -7%; F = -8%

> CC1CC=C(c2ccccc2)C(=S)N1 (stereo not given)
  A = 1%; B = ?; C = i; D = 10µM*; E = 1%; F = 1%

> CC1NC(=O)COC1c1ccccc1 (stereo not given)
  A = 5%; B = 4%; C = i; D = 2%; E = .; F = .

(listing goes on)
Short keys – A = GLP-1R agonist; B = HEK293 tox; C = PTHR1 agonist; D = GLP-1R inv ag; E = Pin1 inh; F = miR-21 reporter
> O=C(Nc1nc(-c2ccc(Cl)cc2Cl)cs1)c1ccc(OCC2CCCO2)cc1 (stereo not given)
  A = 5%; B = -1%; C = -27%; D = 7.1µM*; E = 14%; F = 8%

> O=C(Nc1ccc(Cl)cc1)c1ccc(OCC2CCCO2)cc1 (stereo not given)
  A = 7%; B = -2%; C = -22%; D = 21%; E = 15%; F = -24%

> CCCNC(=S)NC1CC2CCCC(C1)N2Cc1ccccc1OC (stereo not given)
  A = -6%; B = -16%; C = i; D = -11%; E = .; F = .

> COc1ccccc1CN1C2CCCC1CC(NC(=O)/C=C/c1ccccc1)C2 (stereo not given)
  A = -1%; B = ?; C = i; D = 10µM*; E = -3%; F = -21%

> COC(=O)C1(C(=O)OC)C[C@H](/C=C/c2ccccc2)N(Cc2ccccc2OC)[C@@H]1c1cccs1
  A = .; B = 32%; C = -1%; D = 10µM*; E = .; F = .

> NC(=O)C1CCN(c2ncnc(-c3ccc4c(c3)OCCCO4)n2)CC1
  A = .; B = .; C = .; D = .; E = 1%; F = .

> CCC(=O)Nc1ccc(OCc2cc(C3Nc4ccccc4C(=O)N3Cc3ccccc3)ccc2OC)cc1 (stereo not given)
  A = .; B = .; C = .; D = .; E = 22%; F = .

> Nc1nc(NCc2ccc(Cl)c(Cl)c2)c2[nH]cnc2n1
  A = .; B = .; C = .; D = .; E = -8%; F = .

> C=CCn1c(C)c(C(C)=O)c(N2CCN(C(c3ccccc3)c3ccccc3)CC2)nc1=S
  A = 8%; B = ?; C = i; D = 7.1µM*; E = ?; F = 25%

> COC(=O)CNC(c1ccccc1)c1cc(Br)ccc1NC(=O)OCc1ccccc1 (stereo not given)
  A = -3%; B = 5%; C = -6%; D = 4µM*; E = 0%; F = -6%

Quoted at random: 3 records from the list
Short keys – A = GLP-1R agonist; B = HEK293 tox; C = PTHR1 agonist; D = GLP-1R inv ag; E = Pin1 inh; F = miR-21 reporter
> COc1ccccc1CN1C2CCCC1CC(NC(=O)/C=C/c1ccccc1)C2 (stereo not given)
  A = -1%; B = ?; C = i; D = 10µM*; E = -3%; F = -21%

> CCC(=O)Nc1ccc(OCc2cc(C3Nc4ccccc4C(=O)N3Cc3ccccc3)ccc2OC)cc1 (stereo not given)
  A = .; B = .; C = .; D = .; E = 22%; F = .

> C=CCn1c(C)c(C(C)=O)c(N2CCN(C(c3ccccc3)c3ccccc3)CC2)nc1=S
  A = 8%; B = ?; C = i; D = 7.1µM*; E = ?; F = 25%

(cont.)
Short keys – A = GLP-1R agonist; B = HEK293 tox; C = PTHR1 agonist; D = GLP-1R inv ag; E = Pin1 inh; F = miR-21 reporter
> CCc1ccccc1Nc1nn2c(=O)c3ccc(C(=O)NC(C)c4ccccc4)cc3nc2s1 (stereo not given)
  A = 9%; B = -30%; C = -2%; D = 5.6µM*; E = 28%; F = 25%

> CCOC(=O)c1c(C)[nH]c(C)c1S(=O)(=O)N(C)CC(=O)N1CCN(c2cccc(Cl)c2)CC1
  A = .; B = -2%; C = -94%; D = -30%; E = 1%; F = 12%

> CCC(O)(CC)C(=O)N(Nc1ccc(C)cc1)c1ccc(C)cc1
  A = 8%; B = -1%; C = -29%; D = 8.9µM*; E = 0%; F = 1%

> Cc1ccc2c(c1)C(=O)N1[C@H]3c4ccccc4OC[C@@H]3[C@H](c3ccccc3)[C@]1(C)C(=O)N2
  A = -3%; B = 11%; C = i; D = 11µM*; E = 34%; F = .

> C[C@@]12C(=O)Nc3ccc(Cl)cc3C(=O)N1[C@H]1c3cc(Cl)ccc3OC[C@@H]1[C@@H]2c1ccccc1
  A = 0%; B = 14%; C = i; D = ?; E = 14%; F = .

> Cc1ccc2c(c1)[C@H]1[C@H](CO2)[C@H](c2ccccc2)[C@]2(C)C(=O)Nc3ccc(Cl)cc3C(=O)N12
  A = -2%; B = 1%; C = i; D = 6.3µM*; E = 32%; F = .

> Cc1ccc2c(c1)NC(=O)[C@@]1(C)[C@@H](c3ccccc3)[C@H]3COc4ccccc4[C@@H]3N1C2=O
  A = -2%; B = 7%; C = -15%; D = ?; E = 13%; F = .

> O=C(COc1ccccc1)NC1CCCCC1
  A = -5%; B = 7%; C = i; D = 0%; E = 6%; F = -27%

> O=C(NC1CCCC1)c1ccccc1OCc1ccccc1
  A = 20%; B = 2%[0.307 µM]; C = -23%; D = 1%[0.307 µM]; E = 1%; F = 2%

> O=C(COc1ccccc1)NC1CCCCCCC1
  A = 5%; B = 0%; C = -20%; D = 11µM*; E = -3%; F = -42%

> O=C(COc1ccc(C(=O)c2ccccc2)cc1)NC1CCCCC1
  A = -10%; B = 20%; C = i; D = 3%; E = -6%; F = 21%

> O=C(COc1ccc(C(=O)c2ccccc2)cc1)NC1CCCCCC1
  A = 1%; B = -13%; C = -54%; D = 8.9µM*; E = -4%; F = 17%
